Measured values from patent publication US20200392108A1, “ANTIBODY-DRUG CONJUGATES AND RELATED COMPOUNDS, COMPOSITIONS AND METHODS” (Magenta Therapeutics, Inc., priority 2011, published 2020).

Key:
[1] = tested on: BT474 (HER2+ human breast carcinoma) cell line; test: Cell proliferation assay (ATPLite), BT474; format: cell-based; details: BT474 cells, 3 days, ATP level; relative to each other and to parent trastuzumab antibody
[2] = tested on: BT474 cell xenograft; test: BT474 cell xenograft model; format: in vivo, mice (Taconic C.B-17 scid); details: once intravenously 1 mg/Kg, control HB121 plus free MMAF or T4
[3] = tested on: HER2-positive tumor cells; test: Cytotoxicity of trastuzumab ADCs compared to trastuzumab, HER2-positive tumor cells; format: cell-based

Substance | potency for inhibition of tumor cell growth [1] | TGI compared to the control [2] | IC50 [3]
trastuzumab-MC-T4 | approximately equipotent and considerably more potent than the parent trastuzumab antibody | significant TGI compared to the control | 
trastuzumab-dTSPEG-T4 | approximately equipotent and considerably more potent than the parent trastuzumab antibody | significant TGI compared to the control | 
trastuzumab: recombinant humanized monoclonal anti-HER2 antibody |  | significant TGI compared to the control | > 500 nM
